# Apparent affinities of Ab-14 variants for a coronavirus HR2 peptide

From the AlphaSeq antibody data of Engelhart et al. 2022 (doi:10.1038/s41597-022-01779-4), copy in the FLAb collection.

All variants were tested on one target, the spike HR2 peptide PDVDLGDISGINAS (SARS-CoV-2).

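Phage display of a naive human antibody library on the peptide gave the parent. Variants in AAYL49 differ from the parent at up to three CDR positions; double and triple changes were sampled at random. The assay is AlphaSeq: two haploid yeast populations carry antibody and antigen on their surface. Mating (16 h, 30 °C) was followed by selection of diploids and sequencing of their barcodes. A regression on co-assayed BCL2-family reference pairs converts the normalised counts of each replicate to an apparent Kd. Each pool was mated in three replicate cultures.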

Ab-14 is the parent antibody, in scFv form: VH, then a 15-residue (Gly4Ser)3 linker, then VL. The light chain is unchanged in all variants.
VH: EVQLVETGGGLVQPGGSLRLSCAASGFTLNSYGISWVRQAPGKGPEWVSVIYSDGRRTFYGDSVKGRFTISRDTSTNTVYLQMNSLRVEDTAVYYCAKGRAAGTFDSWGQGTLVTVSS
VL: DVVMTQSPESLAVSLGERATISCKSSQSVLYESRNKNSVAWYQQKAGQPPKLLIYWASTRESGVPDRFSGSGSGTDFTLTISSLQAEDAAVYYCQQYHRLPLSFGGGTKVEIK

Changes read parent residue, position, new residue, counted from the first residue of the VH shown. This list gathers variants with a substitution at G99 (VH, numbered from residue 1). Affinities are written as log10 Kd with Kd in nM; a lower number is a better binder. A pair that was not seen in that replicate is written "nd"; this usually means weak binding, but a binder can also be missed. Parent in this assay: reference entry 0.65, copy in this library 4.11 (one replicate of three). Empty control strains, which show no peptide, gave a signal in 15% of pairings with library AAYL49; the median was 4.06 and 95% of these signals were weaker than 2.83. No background was subtracted. The control count says in how many pairings with the empty strains this scFv gave a signal.

With R56E/S63H/G99S the result was 4.15, 3.17, nd (controls 1 of 9). For G26S/I51S/G99I, the assay gave nd, nd, nd (controls 0 of 9). For I34P/G99C/G103V, the assay gave nd, nd, nd (controls 0 of 9). For G33I/G99L/A101L, the assay gave 2.15, 1.67, 1.81 (controls 3 of 9). For G99I/A101Q/D106S, the assay gave 1.87, 1.66, 1.84 (controls 2 of 9). For S53R/R56V/G99F, the assay gave 4.75, nd, nd (controls 0 of 9). With N30V/D54Q/G99S the result was nd, 3.86, nd (controls 0 of 9).

Variant R56H/S63A/G99A gave nd, nd, nd (controls 0 of 9). Variant F27E/N30W/G99C gave nd, nd, nd (controls 0 of 9). Variant F27Q/F59M/G99N gave nd, nd, nd (controls 0 of 9). Variant S53C/R56G/G99I showed nd, nd, 4.79 (controls 5 of 9). With G99T/A102H/D106C the result was 2.82, 2.28, 2.49 (controls 3 of 9). Variant D54E/G99W showed nd, nd, nd (controls 0 of 9). With N30L/F59Q/G99H the result was nd, nd, nd (controls 0 of 9).

With Y52A/D54W/G99T the result was nd, nd, nd (controls 3 of 9). Variant N30A/S63D/G99M showed nd, nd, nd (controls 0 of 9). With G99W/F105K/D106P the result was 0.55, 1.01, 0.49 (controls 0 of 9). For F27Y/D62M/G99C, the assay gave nd, nd, nd (controls 0 of 9). With S35N/G99F the result was nd, nd, nd (controls 0 of 9). Variant G99H/A101K/G103S showed nd, 4.72, 5.73 (controls 1 of 9). With G61I/G99C/G103N the result was nd, nd, nd (controls 0 of 9).

With N30R/Y60R/G99E the result was nd, nd, nd (controls 1 of 9). With G26Y/N30A/G99Y the result was nd, nd, nd (controls 0 of 9). With V50A/G99E/A102N the result was nd, nd, nd (controls 0 of 9). With R57N/S63N/G99H the result was 4.82, 3.73, 5.06 (controls 4 of 9). With L29V/G55D/G99L the result was nd, nd, 4.97 (controls 0 of 9). Variant S31Y/R57W/G99Q showed nd, nd, nd (controls 0 of 9). With G61N/G99A/R100Q the result was 4.52, 3.86, nd (controls 3 of 9).

With I34V/G99H the result was 1.47, 1.55, 1.84 (controls 1 of 9). With T28I/G99K/F105E the result was 2.16, 1.70, 2.58 (controls 2 of 9). For T28N/R57L/G99V, the assay gave nd, nd, nd (controls 0 of 9). Variant G99C/F105H showed nd, nd, nd (controls 0 of 9). Variant R56M/G99R/F105G gave nd, nd, nd (controls 4 of 9). With K65E/G99I/R100K the result was nd, nd, nd (controls 0 of 9). With T58Y/S63L/G99N the result was nd, nd, nd (controls 1 of 9).

Variant G26V/R57Q/G99P gave nd, nd, nd (controls 0 of 9). Variant T58E/G99D/R100A showed nd, 3.90, nd (controls 1 of 9). Variant Y60Q/G99N showed 3.43, 5.10, nd (controls 1 of 9). For S31D/I51M/G99T, the assay gave nd, 4.24, nd (controls 5 of 9). With F59V/D62F/G99D the result was 4.93, 1.84, 2.72 (controls 1 of 9). Variant D54W/G99D/D106T gave nd, 4.45, 5.35 (controls 2 of 9). For G55S/G99R/G103H, the assay gave nd, nd, nd (controls 2 of 9).

With G99S/T104V/F105S the result was nd, nd, nd (controls 1 of 9).

The first 7 entries again:

For R56E/S63H/G99S, the assay gave 4.15, 3.17, nd (controls 1 of 9).
For G26S/I51S/G99I, the assay gave nd, nd, nd (controls 0 of 9).
For I34P/G99C/G103V, the assay gave nd, nd, nd (controls 0 of 9).
For G33I/G99L/A101L, the assay gave 2.15, 1.67, 1.81 (controls 3 of 9).
For G99I/A101Q/D106S, the assay gave 1.87, 1.66, 1.84 (controls 2 of 9).
For S53R/R56V/G99F, the assay gave 4.75, nd, nd (controls 0 of 9).
For N30V/D54Q/G99S, the assay gave nd, 3.86, nd (controls 0 of 9).